Results published in ChEMBL document CHEMBL1145296, “Development of 6-substituted indolylquinolinones as potent Chek1 kinase inhibitors” (Bioorg Med Chem Lett, 2006).

Molecular target: T1, Serine/threonine-protein kinase Chk1 (Homo sapiens, UniProt O14757)
T1 sequence (O14757 whole entry): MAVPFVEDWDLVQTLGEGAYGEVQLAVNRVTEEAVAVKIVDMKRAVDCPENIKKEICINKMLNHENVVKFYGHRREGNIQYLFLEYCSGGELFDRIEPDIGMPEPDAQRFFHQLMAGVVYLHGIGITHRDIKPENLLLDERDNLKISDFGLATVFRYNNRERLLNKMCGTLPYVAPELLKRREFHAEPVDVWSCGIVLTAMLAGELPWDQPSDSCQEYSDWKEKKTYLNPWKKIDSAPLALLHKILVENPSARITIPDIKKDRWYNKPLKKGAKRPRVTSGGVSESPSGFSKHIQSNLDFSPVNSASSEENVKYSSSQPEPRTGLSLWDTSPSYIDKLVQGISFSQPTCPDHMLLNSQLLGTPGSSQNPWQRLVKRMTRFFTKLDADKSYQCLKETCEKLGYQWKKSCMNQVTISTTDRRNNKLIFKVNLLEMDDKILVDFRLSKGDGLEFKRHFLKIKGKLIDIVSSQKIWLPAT
Test: Inhibition of human CHEK1

| IC50 | Structure (SMILES) |
| --- | --- |
| 0.65 nM | O=c1[nH]c2ccc(-c3cn[nH]c3)cc2cc1-c1cc2cc(CN3CCCCC3)ccc2[nH]1 |
| 140 nM | NCC1CCN(Cc2ccc3[nH]c(-c4cc5ccccc5[nH]c4=O)cc3c2)CC1 |
